Nrf2 inh – Nrf2 pathway inhibition; A549 ARE-Fluc reporter, luciferase luminescence, 18-24 h; Potency, µM (doses to about 46 µM), inactives show top-dose activity change, negative = inhibition, usual class: inhibitors; actives 2.1% (n = 360,000); AID 504444; further: potency means the concentration at half of the fitted maximal effect; on the % scale 0 is the no-effect control and ±100 the full control effect; nearly all actives have a fitted effect of over 60% in size
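Nrf2 function is reported as luminescence of an ARE-controlled luciferase in A549 cells. Compounds were tested at several concentrations, and a CellTiter-Fluor read on the same wells flagged cytotoxicity.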
Glioma ERSR ind – ER stress response induction in glioma; U87-MG GRP78 promoter luciferase reporter, 16 h; actives 0.02% (n = 420,000); AID 602332; Potency, µM, without a hit: top-dose activation, usual class: activators; further: potency means the concentration at half of the fitted maximal effect; series mostly up to about 76 µM; % of control where 0% means no effect; nearly all actives have a fitted effect of over 35% in size
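Stably transfected U87-MG human glioma cells carrying a GRP78-based luminescent sensor were seeded at 1000 cells/well, pin-dosed with compounds and incubated 16 h. Luciferase reagent was then added, and end-point luminescence was read after 10 min at room temperature.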
Nrf2 ARE act – Nrf2 pathway activation; Potency, µM (series often up to 46.1 µM), inactives show at the highest dose activation, usual class: activators; AID 624171; AREc32 ARE-luciferase reporter (MCF7-derived line), luminescence, 24 h; actives 0.31% (n = 410,000); further: potency means the concentration at half of the fitted maximal effect; % of control where 0% means no effect; nearly all actives have a fitted effect of over 65% in size
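AREc32 cells carrying an ARE-driven firefly luciferase, 1000 cells/well in OPTI-MEM with 5% FBS, dosed after overnight attachment and incubated 24 hr at 37 deg C. Steady-Glo luminescence read after 30 min at RT.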
PTAP TSG101 blk – blocks PTAP/TSG101 interaction to inhibit HIV-1 budding; Q99816; Fluorescence polarization, FITC-PTAP peptide / Tsg101 binding; Potency, µM (doses to about 115 µM), for inactives: top-dose activity change, negative = inhibition, actives largely listed as inhibitors; 340,000 tested, under 10 active; active means well fitted inhibition curve with a large enough effect in the main read-out, with a control signal flat, not every such curve was filed as active; inconclusive means small, poorly fitted or top-dose-only effect, or effect the other way, or a change in a side signal; inactive means no such curve, though single readings can be large or run the other way; further: potency means the concentration at half of the fitted maximal effect; % of control where 0% means no effect
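FP read-out: FITC-PTAP peptide, 50 nM final, binding Tsg101 binding domain, 10 uM final; 20 min, r.t.; 10 mM HEPES pH 7.5, 0.15 M NaCl, 0.01% Tween 20, 3 mM EDTA, 0.1 mM TCEP.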
A549 tox – kills or reduces viability of A549 cells in Nrf2 counter-screen; A549 ARE-Fluc cells, CellTiter-Fluor viability, 18-24 h; Potency, µM (titrated, usually from 46 µM), inactives show at the top dose activity change, negative = cytotoxicity, hits mostly inhibitors; actives 0.16% (n = 390,000); further: potency means the concentration at half of the fitted maximal effect; on the % scale 0 is the no-effect control and ±100 the full control effect
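Cytotoxicity counterscreen: CellTiter-Fluor fluorescence was measured in A549 ARE_Fluc cells after 18-24 h of compound exposure in a concentration series. The subsequent BugLite luminescent read reports ARE-luciferase activity.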
miR-21 FLuc – raises the signal of a miR-21 reporter; HeLa miR-21 FLuc reporter, luciferase, 48 h; Potency, µM (top dose mostly 38.3 µM), for inactives: at the highest dose reporter change, positive = more light; AID 2288; 340,000 tested, under 10 active; active = well fitted rising curve with a large enough effect; inconclusive = small, poorly fitted or top-dose-only effect; inactive = no such curve, though single readings can be large or run the other way;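 note: % of control where 0% means no effect; miR-21 action dims this reporter so a rising signal means less miR-21 action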
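HeLa cells stably expressing CMV-driven firefly luciferase with a downstream miR-21 binding sequence, endogenously expressing miR-21, were treated with titrations (up to about 40uM final) for 48 hours at 37 degree Celsius. Luciferase luminescence was read after lysis.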
* = called active by the depositor; u = inconclusive; x = no result. Compounds with a hit are over-represented: about 2.1% of the library has one in this group of screens. Unless noted, the call rests on the fitted dose curve; in most records, active means well fitted curve in the direction sought with a large enough effect; inconclusive means small, poorly fitted or top-dose-only effect, or another doubt; inactive means no such curve, though single readings can be large; an effect the other way counts as inactive or inconclusive.

Abbreviations – A = Nrf2 inh; B = Glioma ERSR ind; C = Nrf2 ARE act; D = PTAP TSG101 blk; E = A549 tox; F = miR-21 FLuc
COc1ccccc1NC(CC(=O)c1ccccc1)C(=O)OCC(=O)c1ccc(C)cc1 (configuration not stated)
  A: u	B: 9%	C: 12%	D: -5%	E: -1%	F: -70%

CC(=O)c1ccc(F)c(-c2cc(C)cc3c2OC(CNC(=O)c2ccnn2C)C3)c1 (configuration not stated)
  A: x	B: -4%	C: x	D: x	E: x	F: x

CSc1nnc(CNS(=O)(=O)c2ccc(F)cc2F)n1-c1ccccc1C
  A: x	B: -1%	C: x	D: x	E: x	F: x

Cc1cccc(OCC(=O)Nc2ccc(N3CCN(C(=O)c4ccco4)CC3)cc2)c1
  A: 21µM*	B: -3%	C: 0%	D: -4%	E: -6%	F: 29%

Cc1cc(OC(C)C(=O)Nc2ccncc2)ccc1Cl (configuration not stated)
  A: 18µM*	B: -3%	C: -1%	D: -3%	E: -3%	F: 25%

Cc1ccc(OCC(=O)Nc2ccc(N3CCN(C(=O)c4ccco4)CC3)cc2)cc1C
  A: u	B: -6%	C: 2%	D: 1%	E: -6%	F: 5%

Cc1ccc(OCC(=O)Nc2ccncc2)cc1C
  A: x	B: -1%	C: -1%	D: x	E: x	F: x

Cc1cc(OCC(=O)Nc2ccc(N3CCN(C(=O)c4ccco4)CC3)cc2)cc(C)c1Cl
  A: 8.2µM*	B: -3%	C: -1%	D: -9%	E: -21%	F: -4%

Cc1cc(OCC(=O)Nc2ccncc2)cc(C)c1Cl
  A: 13µM*	B: 1%	C: 2%	D: -2%	E: 1%	F: 19%

COC(=O)c1cc(CNC(=O)c2ccccc2)cc(NC(=O)c2ccccc2OC)c1
  A: x	B: 0%	C: x	D: x	E: x	F: x

CN1CCCC(CNC(=O)c2cnn(-c3ncc4c(n3)-c3ccccc3CC4)c2C2CC2)C1 (configuration not stated)
  A: x	B: -5%	C: x	D: x	E: x	F: x

c1ccc(CN2CCC(CNc3ncnc4ccccc34)C2)cc1 (configuration not stated)
  A: 21µM*	B: -3%	C: 0%	D: -7%	E: -13%	F: x

c1ccc(CN2CCC(Nc3nc(-c4ccccc4)nc4ccccc34)CC2)cc1
  A: u	B: -16%	C: -1%	D: -2%	E: u	F: u

CC(Oc1ccc(Cl)cc1Cl)c1nc(-c2ccc(NC(=O)c3ccncc3)cc2)no1 (configuration not stated)
  A: 10µM*	B: -7%	C: 0%	D: -7%	E: -1%	F: 16%

CC(=O)Nc1ccc(S(=O)(=O)O)c2cc(S(=O)(=O)O)c(N=Nc3ccc(N=Nc4ccc(S(=O)(=O)O)cc4)c4ccc(S(=O)(=O)O)cc34)c(O)c12
  A: x	B: -10%	C: x	D: x	E: x	F: x

Cc1cnc(C=NNC(N)=S)c2cccc(N)c12
  A: 7.3µM*	B: -6%	C: 3%	D: 0%	E: u	F: x

OC(c1ccc2c(c1)CN(Cc1c[nH]c3ccccc13)CCO2)c1ccccn1 (configuration not stated)
  A: x	B: -3%	C: x	D: x	E: x	F: x

CCC(=O)NC(c1ccc(C)cc1)c1cc([N+](=O)[O-])c2cccnc2c1O (configuration not stated)
  A: 23µM*	B: -2%	C: 0%	D: -3%	E: -19%	F: -2%

COc1ccc(C(NC(C)=O)c2cc(Cl)c3cccnc3c2O)cc1 (configuration not stated)
  A: u	B: -3%	C: 0%	D: -1%	E: -12%	F: 22%

CC(=O)NC(c1ccc(N(C)C)cc1)c1cc(Cl)c2cccnc2c1O (configuration not stated)
  A: x	B: -5%	C: 4%	D: x	E: x	F: x

Of the compounds above, 3 have an aryl methoxy group:
Abbreviations – A = Nrf2 inh; B = Glioma ERSR ind; C = Nrf2 ARE act; D = PTAP TSG101 blk; E = A549 tox; F = miR-21 FLuc
COc1ccccc1NC(CC(=O)c1ccccc1)C(=O)OCC(=O)c1ccc(C)cc1 (configuration not stated)
  A: u	B: 9%	C: 12%	D: -5%	E: -1%	F: -70%

COC(=O)c1cc(CNC(=O)c2ccccc2)cc(NC(=O)c2ccccc2OC)c1
  A: x	B: 0%	C: x	D: x	E: x	F: x

COc1ccc(C(NC(C)=O)c2cc(Cl)c3cccnc3c2O)cc1 (configuration not stated)
  A: u	B: -3%	C: 0%	D: -1%	E: -12%	F: 22%

(continued)
Abbreviations – A = Nrf2 inh; B = Glioma ERSR ind; C = Nrf2 ARE act; D = PTAP TSG101 blk; E = A549 tox; F = miR-21 FLuc
CC(=O)NC(c1ccc(C)cc1)c1cc([N+](=O)[O-])c2cccnc2c1O (configuration not stated)
  A: 12µM*	B: -11%	C: 0%	D: 2%	E: u	F: 11%

O=C(NC(c1ccc(Cl)cc1)c1cc(Cl)c2cccnc2c1O)c1cccnc1 (configuration not stated)
  A: 10µM*	B: -2%	C: 3%	D: -3%	E: u	F: 11%

CC(=O)NC(c1ccccc1)c1cc(Cl)c2cccnc2c1O (configuration not stated)
  A: 18µM*	B: -5%	C: 3%	D: 1%	E: u	F: 20%

CCOC(=O)C1CCCCN1C(=O)c1cnn(-c2nccc(-c3cc(C)sc3C)n2)c1C1CC1 (configuration not stated)
  A: x	B: 1%	C: x	D: x	E: x	F: x

Cc1ccc(NS(=O)(=O)c2cc3c(cc2Cl)NC(=O)C3)cc1C
  A: 14%	B: x	C: x	D: x	E: 6%	F: x

CCOC(=O)c1c(C)oc2c1c(C=NCCC(=O)O)c(O)c1ccccc12
  A: 21µM*	B: -7%	C: 5%	D: -5%	E: u	F: -6%

O=C(CNC(=O)c1ccc2cc[nH]c2c1)OC(C(=O)Nc1cc(C(F)(F)F)ccc1Cl)c1ccccc1 (configuration not stated)
  A: 14%	B: x	C: x	D: x	E: 2%	F: x

COC(=O)c1c(NC(NC(=O)C(C)(C)C)C(Cl)(Cl)Cl)sc2c1CCC2 (configuration not stated)
  A: u	B: -2%	C: 5%	D: -3%	E: -3%	F: 1%

CCOC(=O)c1c(NC(NC(C)=O)C(Cl)(Cl)Cl)sc2c1CCCC2 (configuration not stated)
  A: u	B: -5%	C: 7%	D: -4%	E: 0%	F: 11%

COC(=O)c1c(NC(NC(=O)C(C)C)C(Cl)(Cl)Cl)sc2c1CCC2 (configuration not stated)
  A: 18µM*	B: -4%	C: 3%	D: -3%	E: -1%	F: 14%

COC(=O)c1c(NC(NC(C)=O)C(Cl)(Cl)Cl)sc2c1CCCC2 (configuration not stated)
  A: 21µM*	B: -10%	C: 7%	D: -2%	E: 1%	F: 13%

CSc1nnc(CNC(=O)/C=C/c2ccccc2Cl)n1-c1ccc(F)cc1
  A: x	B: -1%	C: x	D: x	E: x	F: x

O=C(O)c1ccc(NC(=O)c2cc3c([nH]c2=O)CCCC3=O)cc1
  A: x	B: -1%	C: x	D: x	E: x	F: x

CC(=O)Oc1cc2c(c3ccccc13)CCC2=O
  A: -1%	B: -1%	C: 13µM*	D: -2%	E: 0%	F: x

CC(=O)Oc1cc(C)c(OC(C)=O)c2ccccc12
  A: x	B: -12%	C: x	D: x	E: x	F: x

COc1ccc(-c2nc(C(N)=O)c3[nH]c(=O)n(-c4cccc(Cl)c4)c3n2)cc1OC
  A: 26µM*	B: -1%	C: 4%	D: 0%	E: u	F: 4%

COC(=O)c1c(NC(=O)c2c(OC)cccc2OC)sc2c1C(C(=O)OC)CC2 (configuration not stated)
  A: 13µM*	B: -1%	C: 4%	D: -4%	E: u	F: -21%

CCCCCCCCCCCCCC[n+]1ccc(C)cc1
  A: x	B: -11%	C: x	D: x	E: x	F: x

CCCCCCCCCCCCCCCC[n+]1ccc(/C=N/O)cc1
  A: 16µM*	B: -15%	C: -3%	D: -3%	E: -20%	F: u

Cc1cccc(CNC(=O)c2cnn(-c3nccc(-c4cccs4)n3)c2C(C)C)n1
  A: x	B: -3%	C: x	D: x	E: x	F: x

Cc1ccc2c(CC(=O)N3CCOc4ccc(CN5CCOCC5)cc4C3)cc(=O)oc2c1
  A: x	B: -4%	C: x	D: x	E: x	F: x

Screening results as filed in PubChem.
